Chains of the proteins cited; added tags and fusions are not shown. Residues count along the entry.
UniProt Q9GZU7, 76-261 limits assumed: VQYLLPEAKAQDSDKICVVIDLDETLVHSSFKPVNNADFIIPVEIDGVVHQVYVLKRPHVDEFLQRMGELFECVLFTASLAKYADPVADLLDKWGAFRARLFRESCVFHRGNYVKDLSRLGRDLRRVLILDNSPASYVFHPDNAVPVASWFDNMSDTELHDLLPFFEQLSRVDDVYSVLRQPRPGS

This is a selection; strong and weak results do not stand in their true shares. Active and inactive are the calls of the source.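 Rule for the calls: active = inhibition above about 50% at 20 µM (limit read from the data); inactive = the rest.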
The compounds below were run against Carboxy-terminal domain RNA polymerase II polypeptide A small phosphatase 1 (Homo sapiens) (UniProt Q9GZU7) (assay: inhibition of human SCP1 dephosphorylation activity – biochemical, colorimetric, uHTS, primary screen (AID 493091;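 note: plate controls were DMSO wells with enzyme for no effect and wells lacking enzyme for full effect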)). Settings: Recombinant Scp1, phosphopeptide, malachite green phosphate absorbance; at 20 µM; hits give high values.
With `O=[N+]([O-])c1ccc2c(c1)C=Nc1ccccc1O2` the inhibition was inactive: 2.1%.
In the case of `CCN(CC)CCCOC(=O)C(O)(c1ccccc1)c1ccccc1`, the inhibition was inactive: -6.09%.
`CCOP(C)(=S)SCC(=O)NC(C)C(=O)O` (stereo not drawn) was tested, and the inhibition was inactive: -9.63%.
In the case of `O=[N+]([O-])c1cc([N+](=O)[O-])c(O)c([N+](=O)[O-])c1.c1ccc(Oc2ccncc2)cc1`, the inhibition was inactive: 0.11%.
`CCOC(=O)c1ccc(NP(C)(=O)Oc2ccc(OC)cc2)cc1` (stereo not drawn) was tested, and the inhibition was inactive: -1.66%.
`CP(=O)(Nc1ccccn1)Oc1ccc(Cl)cc1` (stereo not drawn) was tested, and the inhibition was inactive: -3.82%.
`CP(=O)(Nc1ccc(SC(F)(F)F)cc1)Oc1ccc(Cl)cc1` (stereo not drawn) was tested, and the inhibition was inactive: -3.06%.
With `Cc1cccc(C)c1OP(C)(=O)Nc1ccc(SC(F)(F)F)cc1` (stereo not drawn) the inhibition was inactive: -8.67%.
`CP(=O)(Oc1ccccc1)OC(c1ccccc1)C(F)(F)F` (stereo not drawn) was tested, and the inhibition was inactive: -3.99%.
With `CP(=O)(NC(=O)Nc1ccccc1)Oc1ccccc1` (stereo not drawn) the inhibition was inactive: 9.82%.
For `CCc1ccc(OP(C)(=O)N2CCN(c3ccc([N+](=O)[O-])cc3)CC2)cc1` (stereo not drawn), the inhibition was inactive: -26.6%.
For `Cc1cc(C)cc(OP(C)(=O)Nc2ccc(SC(F)(F)F)cc2)c1` (stereo not drawn), the inhibition was inactive: -2.15%.
In the case of `CP(=S)(Nn1cnnc1)Oc1ccccc1` (stereo not drawn), the inhibition was inactive: 0.32%.
For `COc1ccccc1OP(C)(=O)Nc1ccccc1` (stereo not drawn), the inhibition was inactive: -5.95%.
In the case of `CP(=O)(Nc1ccccc1Br)Oc1ccccc1` (stereo not drawn), the inhibition was inactive: -10.5%.
In the case of `CN1CCCCC1COC(=O)C1(O)c2ccccc2CCc2ccccc21` (stereo not drawn), the inhibition was inactive: -0.16%.
With `COc1ccccc1OP(C)(=O)Nc1c(C)cccc1C` (stereo not drawn) the inhibition was inactive: -10.8%.
For `CCCOc1ccc(NP(C)(=O)Oc2ccc(Cl)cc2)cc1` (stereo not drawn), the inhibition was inactive: -6.46%.
With `CP(=O)(Nc1ccc(SC(F)(F)F)cc1)Oc1ccccc1` (stereo not drawn) the inhibition was inactive: -3.66%.
For `CC1=C2N=C(C=C3N=C(C(C)=C4[N-][C@@](C)([C@@H]5N=C1[C@](C)(CCC(=O)NC[C@@H](C)OP(=O)([O-])O[C@H]1[C@@H](O)[C@@H](n6cnc7cc(C)c(C)cc76)O[C@@H]1CO)[C@H]5CC(N)=O)[C@@](C)(CC(N)=O)[C@@H]4CCC(N)=O)[C@@](C)(CC(N)=O)[C@@H]3CCC(N)=O)C(C)(C)[C@@H]2CCC(N)=O.[C-]#N.[Co+3]`, the inhibition was inactive: 2.07%.
For `O=[N+]([O-])c1cc([N+](=O)[O-])c(Nc2nnnn2CCO)c([N+](=O)[O-])c1`, the inhibition was inactive: -1.26%.
In the case of `CCOC(=O)C(CC)C1=NC(C)(C)Cc2ccccc21.O=[N+]([O-])c1cc([N+](=O)[O-])c(O)c([N+](=O)[O-])c1` (stereo not drawn), the inhibition was inactive: -7.37%.
In the case of `O=[N+]([O-])c1cc([N+](=O)[O-])c(-c2cnn(-c3ccccc3)c2)c([N+](=O)[O-])c1`, the inhibition was inactive: -7.16%.
`Cc1nc2ccc3ccccc3c2s1.O=[N+]([O-])c1cc([N+](=O)[O-])c(O)c([N+](=O)[O-])c1` was tested, and the inhibition was inactive: -6.14%.
With `O=[N+]([O-])c1cc([N+](=O)[O-])c(-n2nnc3ccccc32)c([N+](=O)[O-])c1` the inhibition was inactive: 9.46%.
For `Cc1cc(C)cc(OP(C)(=O)Nc2ccccn2)c1` (stereo not drawn), the inhibition was inactive: -9.38%.
With `CP(=O)(Nc1cccc(Br)c1)Oc1ccccc1` (stereo not drawn) the inhibition was inactive: -3.46%.
`Cc1ccc(C)c(NP(C)(=O)Oc2ccccc2)c1` (stereo not drawn) was tested, and the inhibition was inactive: 9.09%.
In the case of `COc1ccccc1OP(C)(=O)Nc1cccc(Br)c1` (stereo not drawn), the inhibition was inactive: -9.01%.
With `Cc1cc(C)cc(OP(C)(=O)Nc2ccc(C)cc2C)c1` (stereo not drawn) the inhibition was inactive: -5.56%.
With `CCOC(=O)c1ccc(NP(C)(=O)Oc2cc(C)cc(C)c2)cc1` (stereo not drawn) the inhibition was inactive: -12.6%.
`CC1=NCCc2c1[nH]c1ccccc21.O=[N+]([O-])c1cc([N+](=O)[O-])c(O)c([N+](=O)[O-])c1` was tested, and the inhibition was inactive: -8.21%.
For `O=C(O)c1cccc(Nc2c([N+](=O)[O-])cc([N+](=O)[O-])cc2[N+](=O)[O-])c1`, the inhibition was inactive: -5.56%.

— PubChem BioAssay AID493091 (Sanford-Burnham Center for Chemical Genomics, 2011)
